Experimental data taken from patent US7056911B1, “Dibenz[B,F]azepine compounds, pharmaceutical compositions comprising same and methods of use thereof” (Dana-Farber Cancer Institute, priority 1999, dated 2006).

What was measured:
[1] = molecular target: T1, Pneumocystis carinii dihydrofolate reductase (Pneumocystis carinii, UniProt P16184); assay type: biochemical; settings: ratio of IC50 values; cmpds 6 and 7 from mean values
T1 sequence (P16184 1-206): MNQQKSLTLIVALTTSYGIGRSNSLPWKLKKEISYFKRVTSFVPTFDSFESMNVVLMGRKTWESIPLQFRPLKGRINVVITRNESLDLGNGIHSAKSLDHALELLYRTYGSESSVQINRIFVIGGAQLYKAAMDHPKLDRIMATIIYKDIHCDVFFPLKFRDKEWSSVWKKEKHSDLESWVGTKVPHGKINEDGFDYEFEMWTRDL
Experimental: (§1) Compounds of the invention were tested for inhibition of dihydrofolate reductase (DHFR) from rat liver, Pneumocystis carinii and […] gondii. […] The DHFR inhibition assay was conducted by the procedures disclosed in Broughton, M. C. et al., Antimicrob.

[2] = molecular target: T2, Toxoplasma gondii dihydrofolate reductase (Toxoplasma gondii, UniProt Q07422); assay type: biochemical; settings: ratio of IC50 values; cmpds 6 and 7 from mean values
T2 sequence (Q07422 1-610): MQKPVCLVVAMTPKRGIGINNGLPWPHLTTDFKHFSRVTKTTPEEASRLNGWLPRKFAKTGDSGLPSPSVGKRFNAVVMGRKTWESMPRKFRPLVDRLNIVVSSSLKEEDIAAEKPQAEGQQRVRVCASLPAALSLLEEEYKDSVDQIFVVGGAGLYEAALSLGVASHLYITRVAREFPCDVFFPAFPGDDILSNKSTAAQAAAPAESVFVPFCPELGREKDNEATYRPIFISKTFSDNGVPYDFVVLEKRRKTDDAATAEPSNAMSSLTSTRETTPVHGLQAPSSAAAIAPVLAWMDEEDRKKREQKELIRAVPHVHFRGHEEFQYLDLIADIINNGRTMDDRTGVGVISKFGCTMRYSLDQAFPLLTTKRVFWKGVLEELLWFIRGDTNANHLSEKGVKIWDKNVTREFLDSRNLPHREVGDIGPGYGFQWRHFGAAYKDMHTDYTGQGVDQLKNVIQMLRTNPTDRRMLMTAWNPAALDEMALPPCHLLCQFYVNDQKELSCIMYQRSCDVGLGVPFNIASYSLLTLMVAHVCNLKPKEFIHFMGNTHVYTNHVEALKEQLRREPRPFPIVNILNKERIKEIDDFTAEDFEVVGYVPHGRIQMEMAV
Experimental: as §1

`Nc1nc(N)c2nc(CN3c4ccccc4Oc4ccccc43)cnc2n1` [Example 4, N-[(2,4-Diaminopteridin-6-yl)methyl]phenoxazine] was tested, and the “selectivity ratio rat liver/ P.carinii” value [1] was 3.8 and the “selectivity ratio rat liver/ T. gondii liver” value [2] was 5.9.
